Measurements published in patent publication US11124489B2, “EPAC antagonists” (priority 2017, dated 2021).
Read-outs that look alike come from different tables or passages of the source.

Tests used:
EPAC1 = EPAC1 (Homo sapiens (Human), UniProt O95398); details: for IC50: read-out: Rap 1b-bGDP EPAC1 IC50; for Relative GEF activity, EPAC1-mediated Rap1b-bGDP exchange: in the presence of 20 μM cAMP, figure
EPAC2 [1] = target: T1, EPAC2 (Mus musculus (Mouse), UniProt Q9EQZ6); test: biochemical; details: Rap1b-bGDP EPAC2 IC50, apparent IC50, EPAC2 GEF activity, 20 μM cAMP
EPAC2 [2] = target: T1, EPAC2; details: in the presence of 20 μM cAMP; figure

N#C/C(=N\Nc1cc(Cl)cc(Cl)c1)C(=O)c1ccc2ccccc2c1 [ZL0682, (E)-N-(3,5-dichlorophenyl)-2-(naphthalen-2-yl)-2-oxoacetohydrazonoyl cyanide]
IC50 (EPAC1): 11.3 ± 1.4 µM
IC50 (EPAC2 [1]): 2.5 ± 0.5 µM

CC(C)(C)c1ccc(C(=O)/C(C#N)=N/Nc2cc(C(F)(F)F)cc(C(F)(F)F)c2)cc1 [ZL0479, (E)-N-(3,5-bis(trifluoromethyl)phenyl)-2-(4-(tert-butyl)phenyl)-2-oxoacetohydrazonoyl cyanide]
Relative GEF activity, EPAC1-mediated Rap1b-bGDP exchange (EPAC1): dose-dependent inhibition
IC50 (EPAC1): 5.5 ± 0.7 µM
Relative GEF activity, EPAC2-mediated Rap1b-bGDP exchange (EPAC2 [2]): dose-dependent inhibition
IC50 (EPAC2 [1]): 6.3 ± 0.9 µM

CC(C)(C)c1ccc(C(=O)/C(C#N)=N/Nc2ccc(C(F)(F)F)c(Cl)c2)cc1 [ZL0561, (E)-2-(4-(tert-butyl)phenyl)-N-(3-chloro-4-(trifluoromethyl)phenyl)-2-oxoacetohydrazonoyl cyanide]
IC50 (EPAC1): 50.8 ± 14.6 µM

CC(C)(C)c1ccc(C(=O)/C(C#N)=N/Nc2cc(Cl)c(Cl)c(Cl)c2)cc1 [ZL0562, (E)-2-(4-(tert-butyl)phenyl)-2-oxo-N-(3,4,5-trichlorophenyl)acetohydrazonoyl cyanide]
IC50 (EPAC1): 13.9 ± 3.6 µM

COC(=O)c1ccc(C(=O)/C(C#N)=N/Nc2cc(Cl)cc(Cl)c2)cc1 [ZL0566, Methyl (E)-4-(2-cyano-2-(2-(3,5-dichlorophenyl)hydrazono)acetyl)benzoate]
IC50 (EPAC1; apparent IC50, EPAC1 GEF activity, 20 μM cAMP): 29.3 ± 6.2 µM

CC(C)(C)c1ccc(C(=O)/C(C#N)=N/Nc2cccc(Cl)c2)cc1 [ZL0474, (E)-2-(4-(tert-butyl)phenyl)-N-(3-chlorophenyl)-2-oxoacetohydrazonoyl cyanide]
Relative GEF activity, EPAC1-mediated Rap1b-bGDP exchange (EPAC1): dose-dependent inhibition
IC50 (EPAC1): 13.3 ± 3 µM
Relative GEF activity, EPAC2-mediated Rap1b-bGDP exchange (EPAC2 [2]): dose-dependent inhibition
IC50 (EPAC2 [1]): 28.4 ± 5.6 µM

CC(C)(C)c1ccc(C(=O)/C(C#N)=N/Nc2ccc(Cl)c(C(F)(F)F)c2)cc1 [ZL0559, (E)-2-(4-(tert-butyl)phenyl)-N-(4-chloro-3-(trifluoromethyl)phenyl)-2-oxoacetohydrazonoyl cyanide]
IC50 (EPAC1): 6.1 ± 1 µM
IC50 (EPAC2 [1]): 12.4 ± 3.9 µM

N#C/C(=N\Nc1cc(Cl)cc(Cl)c1)C(=O)c1ccc2ncccc2c1 [ZL0642, (E)-N-(3,5-dichlorophenyl)-2-oxo-2-(quinolin-6-yl)acetohydrazonoyl cyanide]
IC50 (EPAC1): 19.6 ± 6.7 µM

CC(C)(C)c1ccc(C(=O)/C(C#N)=N/Nc2cc(F)c(F)c(F)c2)cc1 [ZL0478, (E)-2-(4-(tert-butyl)phenyl)-2-oxo-N-(3,4,5-trifluorophenyl)acetohydrazonoyl cyanide]
IC50 (EPAC1): 24.4 ± 5.7 µM
IC50 (EPAC2 [1]): 15.8 ± 3.8 µM

N#C/C(=N\Nc1cc(Cl)cc(Cl)c1)C(=O)c1ccc(C2CCCCC2)cc1 [ZL0634, (E)-2-(4-cyclohexylphenyl)-N-(3,5-dichlorophenyl)-2-oxoacetohydrazonoyl cyanide]
IC50 (EPAC1): 32.4 ± 9.5 µM

CC(C)(C)c1ccc(C(=O)/C(C#N)=N/Nc2cc(Cl)cc(Cl)c2)cc1 [ZL0475, (E)-2-(4-(tert-butyl)phenyl)-N-(3,5-dichlorophenyl)-2-oxoacetohydrazonoyl cyanide]
IC50 (EPAC1): 5.4 ± 0.7 µM
IC50 (EPAC2 [1]): 2.5 ± 0.6 µM

N#C/C(=N\Nc1cc(Cl)cc(Cl)c1)C(=O)c1ccc(CN2CCCCC2)cc1 [ZL0644, (E)-N-(3,5-dichlorophenyl)-2-oxo-2-(4-(piperidin-1-ylmethyl)phenyl)acetohydrazonoyl cyanide]
IC50 (EPAC1): 39.4 ± 4.7 µM

N#C/C(=N\Nc1cc(Cl)cc(Cl)c1)C(=O)c1ccc2c(c1)CCCC2 [ZL0524, (E)-N-(3,5-dichlorophenyl)-2-oxo-2-(5,6,7,8-tetrahydronaphthalen-2-yl)acetohydrazonoyl cyanide]
Relative GEF activity, EPAC1-mediated Rap1b-bGDP exchange (EPAC1): dose-dependent inhibition
IC50 (EPAC1): 3.6 ± 0.3 µM
Relative GEF activity, EPAC2-mediated Rap1b-bGDP exchange (EPAC2 [2]): dose-dependent inhibition
IC50 (EPAC2 [1]): 1.2 ± 0.1 µM

CC(C)(C)c1ccc(C(=O)/C(C#N)=N/Nc2cc(F)cc(Cl)c2)cc1 [ZL0477, (E)-2-(4-(tert-butyl)phenyl)-N-(3-chloro-5-fluorophenyl)-2-oxoacetohydrazonoyl cyanide]
IC50 (EPAC1): 6.4 ± 1.4 µM
IC50 (EPAC2 [1]): 3.4 ± 0.6 µM

N#C/C(=N\Nc1cc(Cl)cc(Cl)c1)C(=O)c1ccc(OC(F)(F)F)cc1 [ZL0564, (E)-N-(3,5-dichlorophenyl)-2-oxo-2-(4-(trifluoromethoxy)phenyl)acetohydrazonoyl cyanide]
IC50 (EPAC1): 40.9 ± 6.8 µM

N#C/C(=N\Nc1cc(Cl)cc(Cl)c1)C(=O)c1ccc(CN2CCOCC2)cc1 [ZL0668, (E)-N-(3,5-dichlorophenyl)-2-(4-(morpholinomethyl)phenyl)-2-oxoacetohydrazonoyl cyanide]
IC50 (EPAC1): 14.6 ± 5.7 µM

CC(C)(C)c1ccc(C(=O)/C(C#N)=N/Nc2cc(Cl)cc(C(F)(F)F)c2)cc1 [ZL0560, (E)-2-(4-(tert-butyl)phenyl)-N-(3-chloro-5-(trifluoromethyl)phenyl)-2-oxoacetohydrazonoyl cyanide]
IC50 (EPAC1): 5.6 ± 0.9 µM
IC50 (EPAC2 [1]): 5.4 ± 1.1 µM

CC(C)(C)c1ccc(C(=O)/C(C#N)=N/Nc2ccc(F)c(Cl)c2)cc1 [ZL0476, (E)-2-(4-(tert-butyl)phenyl)-N-(3-chloro-4-fluorophenyl)-2-oxoacetohydrazonoyl cyanide]
IC50 (EPAC1): 12.4 ± 0.9 µM

CC(C)(C)c1ccc(C(=O)/C(C#N)=N/Nc2ccc(F)c(Cl)c2)cc1 [Compound 12]
IC50 (EPAC1): > 150 µM
